The results in this text go back to publication PMC7206793 (Science (New York, N.Y.), 2019).

The target of this test is T1, Flag (N-terminus)- and V5 (C-terminus)-tagged recombinant human Lmbr1l protein (human, UniProt Q6UX01 1-489).
T1 sequence (looked up): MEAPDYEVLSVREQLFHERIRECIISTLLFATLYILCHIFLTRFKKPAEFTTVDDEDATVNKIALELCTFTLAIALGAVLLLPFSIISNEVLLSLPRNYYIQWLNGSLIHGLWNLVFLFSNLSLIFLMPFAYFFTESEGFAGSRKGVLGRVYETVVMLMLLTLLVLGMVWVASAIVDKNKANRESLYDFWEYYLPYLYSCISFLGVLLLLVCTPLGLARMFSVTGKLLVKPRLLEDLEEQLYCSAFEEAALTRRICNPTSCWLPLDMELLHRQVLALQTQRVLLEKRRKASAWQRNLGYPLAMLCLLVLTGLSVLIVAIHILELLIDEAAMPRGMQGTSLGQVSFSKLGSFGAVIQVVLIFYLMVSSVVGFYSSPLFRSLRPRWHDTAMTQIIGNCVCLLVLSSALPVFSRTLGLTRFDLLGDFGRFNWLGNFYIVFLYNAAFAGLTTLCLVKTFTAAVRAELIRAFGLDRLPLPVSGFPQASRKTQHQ
In words: peptide or protein array.

B1: GSK-3β (on the human protein microarray) (natural protein, UniProt P49841 1-420, looked up)
chain: MSGRPRTTSFAESCKPVQQPSAFGSMKVSRDKDGSKVTTVVATPGQGPDRPQEVSYTDTKVIGNGSFGVVYQAKLCDSGELVAIKKVLQDKRFKNRELQIMRKLDHCNIVRLRYFFYSSGEKKDEVYLNLVLDYVPETVYRVARHYSRAKQTLPVIYVKLYMYQLFRSLAYIHSFGICHRDIKPQNLLLDPDTAVLKLCDFGSAKQLVRGEPNVSYICSRYYRAPELIFGATDYTSSIDVWSAGCVLAELLLGQPIFPGDSGVDQLVEIIKVLGTPTREQIREMNPNYTEFKFPQIKAHPWTKVFRPRTPPEAIALCSRLLEYTPTARLTPLEACAHSFFDELRDPNVKLPNGRDTPALFNFTTQELSSNPPLATILIPPHARIQAAASTPTNATAASDANTGDRGQTNNAASASASNST
In the case of B1, the binding result was “binds”.
